Data on one molecule can be found in ChEMBL document CHEMBL3886638, “Heteroaryl linked quinolinyl modulators of RORγt” (2016).

Sequences of proteins named here, by UniProt entry; tags and fusion partners are left off. A change or cut given only in a name is not applied to a line headed by its entry.
UniProt P51449: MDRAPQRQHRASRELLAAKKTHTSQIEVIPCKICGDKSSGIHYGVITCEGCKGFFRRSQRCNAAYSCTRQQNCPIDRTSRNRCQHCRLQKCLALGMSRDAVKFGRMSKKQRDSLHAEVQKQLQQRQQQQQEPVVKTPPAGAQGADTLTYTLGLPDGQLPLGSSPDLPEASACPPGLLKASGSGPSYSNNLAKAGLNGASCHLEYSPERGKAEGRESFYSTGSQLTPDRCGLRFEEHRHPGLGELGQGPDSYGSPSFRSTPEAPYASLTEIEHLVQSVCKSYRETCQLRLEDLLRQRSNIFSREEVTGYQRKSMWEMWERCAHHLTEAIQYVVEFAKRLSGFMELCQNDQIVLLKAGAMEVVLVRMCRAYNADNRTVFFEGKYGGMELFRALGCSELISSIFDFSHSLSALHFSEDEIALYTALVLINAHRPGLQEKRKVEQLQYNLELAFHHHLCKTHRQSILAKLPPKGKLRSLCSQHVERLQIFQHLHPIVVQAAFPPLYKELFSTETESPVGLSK

This assay has as its target Nuclear receptor ROR-gamma (Homo sapiens, UniProt P51449). The assay can be described thus: ThermoFluor® Assay: ThermoFluor® experiments were carried out using instruments owned by Janssen Research and Discovery, L.L.C. through its acquisition of 3-Dimensional Pharmaceuticals, Inc. 1,8-ANS (Invitrogen) was used as a fluorescent dye. Protein and compound solutions are dispensed into black 384-well polypropylene PCR microplates (Abgene) and overlayed with silicone oil (1 μL, Fluka, type DC 200) to prevent evaporation. Bar-coded assay plates are robotically loaded onto a thermostatically controlled PCR-type thermal block and then heated at a typical ramp-rate of 1 °C./min for all experiments. Fluorescence was measured by continuous illumination with UV light (Hamamatsu LC6) supplied via fiber optic and filtered through a band-pass filter (380-400 nm; >60D cutoff). Fluorescence emission of the entire 384-well plate was detected by measuring light intensity using a CCD camera (Sensys, Roper Scientific) filtered to detect 500±25 nm, resulting in simultaneous and independent readings of all 384 wells. Images were collected at each temperature, and the sum of the pixel intensity in a given area of the assay plate was recorded versus temperature. Reference wells contained RORγt without compounds, and the assay conditions were as follows: 0.065 mg/mL RORγt, 60 μM 1,8-ANS, 100 mM Hepes, pH 7.0, 10 mM NaCl, 2.5 mM GSH, 0.002% Tween-20. […].

`COc1ccc(C(O)(c2ccc3nc(N(C)C)c(Oc4ccccc4)c(Cl)c3c2)c2cncn2C)cn1` (stereo unspecified) displayed a Kd of 4.1 nM.

What is called Kd is the concentration at which binding is half-saturated. A higher Kd goes with a looser complex.
